Measured values taken from US12145911B2, “Inhibitors of cysteine proteases and methods of use thereof” (priority 2020, dated 2024).

Biological target: COVID-19 (nCoV-2019, SARS-CoV2) Mpro (Severe acute respiratory syndrome coronavirus 2, UniProt P0DTD1)
Assay: SARS-CoV2 Mpro enzymatic assay
Format: biochemical

For `COc1cccc2[nH]c(C(=O)N[C@H](CC3CC3)C(=O)N[C@H](C#N)C[C@@H]3CCC(C)(C)NC3=O)cc12` (single isomer, unassigned; isomer 1) [787A (Isomer 1)], which IC50 is on record?
Its IC50 is < 2000 nM.
